Our source for the IC50 values is patent publication US20240228491A1, “METHIONINE ADENOSYLTRANSFERASE INHIBITOR, PREPARATION METHOD THEREFOR AND APPLICATION THEREOF” (SCINNOHUB PHARMACEUTICAL CO., LTD., priority 2021, published 2024).

The chains behind the UniProt entries cited, without tags or fusion partners.
UniProt P31153, whole entry: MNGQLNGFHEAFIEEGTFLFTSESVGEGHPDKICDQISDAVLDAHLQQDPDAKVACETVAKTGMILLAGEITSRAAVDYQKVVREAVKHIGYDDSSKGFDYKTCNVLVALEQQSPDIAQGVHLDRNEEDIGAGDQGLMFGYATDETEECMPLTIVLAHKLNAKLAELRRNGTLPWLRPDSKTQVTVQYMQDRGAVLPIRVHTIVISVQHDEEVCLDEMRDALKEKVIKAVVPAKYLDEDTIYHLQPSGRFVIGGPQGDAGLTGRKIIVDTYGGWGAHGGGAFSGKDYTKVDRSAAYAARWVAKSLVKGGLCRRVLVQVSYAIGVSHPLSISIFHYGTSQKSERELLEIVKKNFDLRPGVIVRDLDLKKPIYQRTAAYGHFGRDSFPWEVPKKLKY

In one assay the target is MAT2a (Homo sapiens (Human), UniProt P31153). Briefly: MAT2a enzymatic activity test (colorimetric assay). Particulars: read-out: IC50 against MAT2a, OD620, 150 min reaction. As to the method: The Colorimetric assay method was used to detect the IC50 value of the tested compounds on MAT2a.
The specific steps were as follows: The compounds having the test starling concentration of 1 μM or 10 μM were diluted into 10 concentration points in a 3-fold gradient. 250 nL of the solutions of the compounds to be tested with 10 different concentrations were taken and added into a 384 well plate for later use. 20 μg/mL of MAT2a enzyme solution was prepared with Assay buffer (50 mM Tris, 50 mM KCl, 10 mM MgCl2, 0.05% polyoxyethylene lauryl ether, pH 8.0). 15 μL of the MAT2a enzyme solution at 20 μg/mL was add into the wells of the compounds to be tested at different concentrations; and 15 μL of Assay buffer was added into the negative control well. An incubation was carried out for 15 minutes after shaking for mixing well. A mixed substrate solution (comprising 400 μM ATP and 600 μM L-Methionine) was prepared with Assay buffer. 10 μL of the mixed substrate solution was added to the positive control well, the compound to be tested well, and the negative control well, respectively, and the reaction began, for a reaction time of 150 min. […] OD620 was read and data were processed. […]

The test system of a further assay is KP-4 cells. As to the kind of experiment: Inhibitory activity test of KP-4 cells. Particulars: read-out: KP-4 cell inhibitory activity IC50; 144 h incubation. The procedure:
On day 1, cell seeding: after digestion of the cells with trypsin, the cells were resuspended to 1*10^4/mL with RPMI1640 complete medium (HyClone Company, Cat. No. SH30809.01) supplemented with 10% FBS (Gibco, 10099141C), mixed evenly, and added into the 96-well plate at 100 μL/well. The plate was put back to the incubator for the adherent growth of cells. On day 2, the addition of the compounds to be tested: 100 μL of the complete medium containing the compounds (the concentration of the compound in the medium was formulated as follows: 3-fold gradient dilution from 60 μM, 10 concentration gradients in total) was added, incubated for 144 hours at 37° C., 5% CO2. On day 8, the cell culture plates were taken out from incubator and equilibrated to room temperature, excess medium was pipetted from the wells so that 50 μL of supernatant was retained, and 50 μL of CellCounting-Lite 2.0 (Nanjing Vazyme Biotech Co., Ltd., Cat. No. DD1101) reagent was added per well, and the cells were fully lysed by shaking at room temperature for 10 min, and incubated for 5 min to detect the fluorescence intensity.
(§1) % Inhibition=100−(signal of the well with the compound to be tested−signal of the well with only medium and free of cells)/(signal of the well with cells but without addition of the compound−signal of the well with only medium and free of cells)×100. […]

The next assay concerns HCT116 MTAP-/- cells. Briefly: Activity test of HCT116 MTAP gene homozygous deletion cells (CellTiter-Glo). The note with it: read-out: HCT116 MTAP-/- Cell IC50, 120 h incubation. As to the method: On day 1, cell seeding: after digestion of the cells with trypsin, the cells were resuspended to the desired density with the complete medium (RPMI-1640 supplemented with 10% FBS; the brand of FBS is EXCELL, Cat. No. FND500; the brand of RPMI-1640 is ATCC, Cat. No. 30-2001), mixed evenly, and added into the 96-well plate at 100 μL/well with a cell density of 1000-3000 cells per well. The plate was put back to the incubator for the adherent growth of cells. On day 2, the addition of the compounds to be tested: before the addition of the compounds, the cells were starved with serum-free medium for 4 h, then the complete medium containing the corresponding concentration of compounds was added thereto, and the cells were incubated at 37° C., 5% CO2 for 120 h. On day 7, the cell culture plates were taken out from incubator and equilibrated to room temperature. 50 μL of CellTiter-Glo (Promega Company, Cat. No. G7571) reagent was added per well, and the cells were fully lysed by shaking at room temperature for 2 min, and then incubated for another 60 min to detect the fluorescence intensity. Calculation formula:
as §1

Another assay relates to DOHH-2 cells. Briefly: Inhibitory activity test of DOHH-2 cells. The note with it: read-out: DOHH-2 cell inhibitory activity IC50; 120 h incubation, CellTiter-Glo. As to the method:
On day 1, cell seeding: cells were resuspended to the desired density with DMEM complete medium (Gibico, Cat. No. 10569010) supplemented with 10% FBS (Gibco, 10099141C), mixed evenly, and added into the 384-well plate at 30 μL/well with a cell density of 800/well. The compounds to be tested were added as follows: 30 nL of DMSO solution containing the compound (the concentration of the compound in which was formulated as: 3-fold gradient dilution from 10 mM, 10 concentration points in total) was added, incubated for 120 h at 37° C., 5% CO2. On day 6, the cells treated with compounds were removed and equilibrated to room temperature, 30 μL of CellTiter-Glo (Promega company, Cat. No. G7573) reagent was added per well, and the cells were fully lysed by shaking at room temperature, and then incubated in dark at 37° C., 5% CO2 for 30 min, to detect the fluorescence intensity.
% Inhibition=100−(signal of the well with the compound to be tested−signal of the well with only medium and free of cells)/(signal of the well with cells but without the addition of the compound−signal of the well with only medium and free of cells)×100.
The log value of concentration was used as the X-axis and % Inhibition was used as the Y-axis, so as to fit the dose-effect curve and calculate the IC50 value using nonlinear regression (dose response−variable slope) in the analysis software GraphPad Prism 8.

In the case of `Nc1c(-c2ccn3nccc3c2)c(=O)n(-c2ccc(Cl)cc2)c2nc(C(F)(F)F)ccc12`, the IC50 on MAT2a worked out at 16 nM; with KP-4 cells it was 410 nM; with HCT116 MTAP-/- cells it was 13.7 nM; in the assay with DOHH-2 cells, 200 nM.

Consider `Cn1ncc2cc(-c3c(N)c4ccc(C(F)(F)F)nc4n(-c4ccc(Cl)cc4)c3=O)cnc21`, for which the IC50 on MAT2a was determined as 15.8 nM; in the assay on KP-4 cells, 970 nM.
